Reference: ChEMBL document CHEMBL2406958, “Development of a chimeric c-Src kinase and HDAC inhibitor” (ACS Med Chem Lett, 2013)

Chains of the proteins cited; added tags and fusions are not shown. Lines headed by an entry give the natural chain unless they say otherwise; changes in a name come on top.
UniProt P12931: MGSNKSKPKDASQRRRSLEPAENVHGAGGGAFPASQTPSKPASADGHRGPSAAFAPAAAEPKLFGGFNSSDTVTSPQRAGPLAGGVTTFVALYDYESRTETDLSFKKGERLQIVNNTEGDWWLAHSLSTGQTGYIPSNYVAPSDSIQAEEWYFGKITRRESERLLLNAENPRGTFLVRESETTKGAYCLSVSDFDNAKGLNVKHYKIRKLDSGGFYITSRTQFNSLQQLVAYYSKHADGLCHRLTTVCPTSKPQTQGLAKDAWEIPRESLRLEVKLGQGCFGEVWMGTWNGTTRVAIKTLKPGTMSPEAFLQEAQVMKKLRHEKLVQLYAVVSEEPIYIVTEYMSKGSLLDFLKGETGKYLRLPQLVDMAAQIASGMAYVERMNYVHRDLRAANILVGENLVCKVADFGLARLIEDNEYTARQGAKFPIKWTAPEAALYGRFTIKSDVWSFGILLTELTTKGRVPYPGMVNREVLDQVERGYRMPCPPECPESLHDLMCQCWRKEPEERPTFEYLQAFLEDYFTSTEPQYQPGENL

Biological target: Proto-oncogene tyrosine-protein kinase Src (Homo sapiens, UniProt P12931)
Assay: Inhibition of c-Src (unknown origin) after 10 mins by fluorimetric assay

Nc1ncnc2c1c(-c1ccc(Cl)cc1)nn2-c1cccc(-c2cnnn2CCCCCCCC(=O)NO)c1
Ki: 0.407 µM

Nc1ncnc2c1c(-c1ccc(Cl)cc1)nn2-c1cccc(-c2cnnn2Cc2cccc(/C=C/C(=O)NO)c2)c1
Ki: 2.14 µM
